From patent US20050175976A1, “Meiosis activating sterol augments implantation rate” (priority 1999, published 2005) come the findings set out here.

The test system of this experiment is mouse cumulus enclosed oocytes. Nature of the experiment: Resumption of meiosis (GVBD) of mouse oocytes cultured in vitro with FSH and/or EGF. The following applies: FSH 10 IU/l, 22-24 h, HX-medium. Format: cell-based. The procedure:
Immature female mice (B6D2-F1 strain C57B1/2J) were kept under controlled light and temperature conditions with free access to food and water. Ovarian stimulation was performed when the mice weighed 10-16 grams and consisted of an intra-peritoneal injection of Gonadoplex (Leo, Copenhagen, Denmark) containing (7.5 U/mouse). The animals were killed by cervical dislocation 44-48 h later. The media used for the culture of oocytes consisted of α-Minimum Essential Medium (α-MEM), with Earles Balanced Salt Solution (EBSS), 4 mM hypoxantine (HX), 3 mg/ml Bovine Serum Albumin, 0.23 mM pyruvate, 2 mM glutamine, 100 IU/ml penicillin and […] streptomycin. The ovaries were recovered and placed in HX-medium where an initial cleaning and removal of connective tissue was performed. Oocytes were isolated from the ovaries by puncturing individual follicles using 25 gauge needles. Isolation of oocytes were performed in HX-medium to prevent resumption of meiosis until the tests were ready to be performed. The oocytes were then washed 3 times in control medium before the start of each experiment. […] By the end of the culture period, germinal […] breakdown (GVBD) was scored by examining the oocyte in an inverted microscope. The percentage of oocytes with GVBD per total number of oocytes (% GVBD) was calculated.

Marks after values point to notes of the source that are not given here.

With “FSH: follicle stimulating hormone, glycoprotein with follicle-stimulating activity”, the “% GVBD” value (162 oocytes) is 45^b %. The “No. of GVBD” value (of 162 oocytes) stood at 73.
